Data from PMC9871890.

Amino acid sequences for entries named in this document (tags omitted). Residues count along the entry.
UniProt P02745, 23-245: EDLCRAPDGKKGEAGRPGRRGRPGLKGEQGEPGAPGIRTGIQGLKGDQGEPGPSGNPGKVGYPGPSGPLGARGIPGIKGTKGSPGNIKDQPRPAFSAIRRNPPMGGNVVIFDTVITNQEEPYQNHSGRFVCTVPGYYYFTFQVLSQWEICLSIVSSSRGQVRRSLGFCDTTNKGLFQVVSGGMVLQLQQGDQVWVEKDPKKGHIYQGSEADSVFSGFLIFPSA
human C1q (Native Human C1q protein, abcam), UniProt P02746, 28-253: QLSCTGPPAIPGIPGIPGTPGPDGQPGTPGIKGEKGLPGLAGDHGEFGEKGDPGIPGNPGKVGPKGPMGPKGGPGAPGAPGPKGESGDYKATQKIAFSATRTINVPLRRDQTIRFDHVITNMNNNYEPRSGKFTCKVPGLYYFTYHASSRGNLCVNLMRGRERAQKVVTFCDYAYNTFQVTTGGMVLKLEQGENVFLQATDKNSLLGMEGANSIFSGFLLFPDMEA
human C1q (Native Human C1q protein, abcam), UniProt P02747, 29-245: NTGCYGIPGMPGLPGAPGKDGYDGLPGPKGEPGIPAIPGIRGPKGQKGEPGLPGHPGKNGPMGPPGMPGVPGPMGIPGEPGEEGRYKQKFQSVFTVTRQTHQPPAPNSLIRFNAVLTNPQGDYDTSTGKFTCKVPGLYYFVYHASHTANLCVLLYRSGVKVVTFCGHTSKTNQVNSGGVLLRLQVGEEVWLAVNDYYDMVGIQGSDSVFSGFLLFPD

Biological target: anti-EGFR/HER2 bispecific antibody
Experiment: SPR; Biacore T200, sandwich assay; BsAb (1 µg/mL) captured on a Protein L chip, C1q in 2-fold dilutions from 5 nM flowed over at 30 µL/min; HBS-EP pH 7.4

Kd: 6.4 nM
Substance: human C1q (Native Human C1q protein, abcam) (from UniProt P02745 23-245; P02746 28-253; P02747 29-245) (complex)
